Biological target: MMP-9 (Homo sapiens, UniProt P14780)
Experiment: In Vitro Gelatinase Assay (MMP-9)
Assay type: biochemical
Details: read-out: IC50 (nM) MMP-9; human neutrophil gelatinase B

The chains behind the UniProt entries cited, without tags or fusion partners. Residues count along the entry.
UniProt P14780, 94-707: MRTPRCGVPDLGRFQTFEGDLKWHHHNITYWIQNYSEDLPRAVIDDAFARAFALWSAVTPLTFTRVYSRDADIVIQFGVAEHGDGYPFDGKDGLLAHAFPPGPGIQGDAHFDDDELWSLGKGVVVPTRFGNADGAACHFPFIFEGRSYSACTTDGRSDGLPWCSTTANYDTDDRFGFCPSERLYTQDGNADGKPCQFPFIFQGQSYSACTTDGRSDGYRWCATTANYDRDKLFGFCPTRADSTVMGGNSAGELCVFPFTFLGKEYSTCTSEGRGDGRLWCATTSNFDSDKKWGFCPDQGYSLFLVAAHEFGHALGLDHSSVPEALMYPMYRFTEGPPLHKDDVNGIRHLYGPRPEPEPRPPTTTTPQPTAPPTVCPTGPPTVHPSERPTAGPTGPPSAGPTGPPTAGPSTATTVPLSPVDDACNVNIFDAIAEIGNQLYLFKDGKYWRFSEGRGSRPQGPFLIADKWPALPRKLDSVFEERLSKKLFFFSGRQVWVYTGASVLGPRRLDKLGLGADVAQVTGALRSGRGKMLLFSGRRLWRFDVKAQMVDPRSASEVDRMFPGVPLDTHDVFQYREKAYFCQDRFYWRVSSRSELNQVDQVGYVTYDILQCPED

IC50: 1.1 nM
Compound: COc1ccc(S(=O)(=O)N2Cc3ccccc3N(C(=O)c3cccs3)CC2C(=O)NO)cc1 (stereo not shown) [Example 8, 4-(4-Methoxybenzenesulfonyl)-1-(2-thienylcarbonyl)-2,3,4,5-tetrahydro-1H-[1,4]benzodiazepine-3-carboxylic acid, Hydroxyamide]

Reference: patent publication US6071903A, “2,3,4,5-tetrahydro-1H-[1,4]-benzodiazepine-3-hydroxyamic acids” (American Cyanamid Company, priority 1999, dated 2000)
